Here are results for two compounds from ChEMBL document CHEMBL3352474, “Design, synthesis and biological evaluation of FLT3 covalent inhibitors with a resorcylic acid core” (Bioorg Med Chem, 2014).

Protein sequences, listed by entry. Tags and fused reporters are not part of them.
UniProt P36888, whole entry: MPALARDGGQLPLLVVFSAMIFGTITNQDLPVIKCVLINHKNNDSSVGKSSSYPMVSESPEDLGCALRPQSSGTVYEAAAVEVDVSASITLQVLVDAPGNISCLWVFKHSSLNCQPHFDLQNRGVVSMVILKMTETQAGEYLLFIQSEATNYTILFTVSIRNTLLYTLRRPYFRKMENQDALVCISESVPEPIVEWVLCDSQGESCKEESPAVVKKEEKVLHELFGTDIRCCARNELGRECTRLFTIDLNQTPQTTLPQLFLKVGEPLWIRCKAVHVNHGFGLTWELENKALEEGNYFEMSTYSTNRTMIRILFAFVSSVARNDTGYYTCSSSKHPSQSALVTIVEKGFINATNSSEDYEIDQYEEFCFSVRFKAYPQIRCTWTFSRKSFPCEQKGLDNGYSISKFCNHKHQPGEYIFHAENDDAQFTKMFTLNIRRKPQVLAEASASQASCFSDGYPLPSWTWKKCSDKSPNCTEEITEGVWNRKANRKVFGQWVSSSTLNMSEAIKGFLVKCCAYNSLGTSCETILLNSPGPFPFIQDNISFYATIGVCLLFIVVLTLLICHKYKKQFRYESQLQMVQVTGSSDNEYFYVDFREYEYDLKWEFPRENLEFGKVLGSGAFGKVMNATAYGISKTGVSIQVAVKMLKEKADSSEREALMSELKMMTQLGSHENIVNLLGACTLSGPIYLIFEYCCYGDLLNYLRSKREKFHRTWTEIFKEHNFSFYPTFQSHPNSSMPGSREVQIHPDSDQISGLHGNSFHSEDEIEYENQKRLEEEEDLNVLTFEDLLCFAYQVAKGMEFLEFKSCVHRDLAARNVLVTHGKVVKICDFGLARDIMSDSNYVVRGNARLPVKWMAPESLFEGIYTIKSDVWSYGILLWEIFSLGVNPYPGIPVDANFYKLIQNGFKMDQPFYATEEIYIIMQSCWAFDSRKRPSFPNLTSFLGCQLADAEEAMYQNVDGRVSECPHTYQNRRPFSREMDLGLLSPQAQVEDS

SMILES strings stand for the structures.

The assay concerns the target Receptor-type tyrosine-protein kinase FLT3 (Homo sapiens, UniProt P36888).

On to `C=CC(=O)NC/C=C/c1cc(OCCCN2CCOCC2)cc(O)c1C(=O)OC(C)C`, for which the T1/2 is 6.8 min. Turning to `C=CS(=O)(=O)NC/C=C/c1cc(OC)cc(O)c1C(=O)OC(C)C`, the T1/2 was 5.9 min.
